These are literature values, as cited in patent US20040204482A1, “Extended release oral dosage form” (priority 2001, published 2004).

For this data set the following is noted: at 25° C.

Regarding `NC(=O)c1ccc(F)c2c1C[C@@H](N(C1CCC1)C1CCC1)CO2.O.O=C(O)C(O)C(O)C(=O)O` [(R)-3-N,N-dicyclobutylamino-8-fluoro-3,4-dihydro-2H-1-benzopyran-5-carboxamide hydrogen (2R,3R)-tartrate monohydrate], the water solubility was 70 mg/mL.
